## Cyclic peptide permeability, from CycPeptMPDB

Data: CycPeptMPDB; original report Kelly et al. 2021, doi:10.1021/jacs.0c06115.

PAMPA is the parallel artificial membrane permeability assay, which has no cells and reads passive diffusion. P is given in units of 10^-6 cm/s (from log10 values with two decimals); larger means faster passage.

compound	PAMPA (10^-6 cm/s)
CC(=O)N1CCC[C@H]1C(=O)N(C)[C@@H](CC(C)C)C(=O)N[C@@H]1C(=O)N(C)[C@@H](CC(C)C)C(=O)N(C)[C@@H](CC(C)C)C(=O)N(C)[C@H](CC(C)C)C(=O)N(C)[C@H](C)C(=O)N[C@H](CC(C)C)C(=O)N2CCC[C@@H]2C(=O)O[C@@H]1C	2.8
CC(=O)N1CCC[C@H]1C(=O)N(C)[C@H](CC(C)C)C(=O)N[C@@H]1C(=O)N[C@H](CC(C)C)C(=O)N[C@H](CC(C)C)C(=O)N(C)[C@H](CC(C)C)C(=O)N(C)[C@@H](C)C(=O)N[C@H](CC(C)C)C(=O)N2CCC[C@@H]2C(=O)O[C@@H]1C	2.2
CC(=O)N1CCC[C@H]1C(=O)N(C)[C@@H](CC(C)C)C(=O)N[C@@H]1C(=O)N[C@H](CC(C)C)C(=O)N[C@@H](CC(C)C)C(=O)N(C)[C@H](CC(C)C)C(=O)N(C)[C@H](C)C(=O)N[C@@H](CC(C)C)C(=O)N2CCC[C@@H]2C(=O)O[C@@H]1C	4.1
CC(=O)N1CCC[C@H]1C(=O)N(C)[C@H](CC(C)C)C(=O)N[C@@H]1C(=O)N[C@@H](CC(C)C)C(=O)N[C@H](CC(C)C)C(=O)N(C)[C@@H](CC(C)C)C(=O)N(C)[C@@H](C)C(=O)N[C@H](CC(C)C)C(=O)N2CCC[C@H]2C(=O)O[C@@H]1C	1
CC(=O)N1CCC[C@@H]1C(=O)N(C)[C@@H](CC(C)C)C(=O)N[C@@H]1C(=O)N(C)[C@H](CC(C)C)C(=O)N[C@@H](CC(C)C)C(=O)N[C@H](CC(C)C)C(=O)N[C@@H](C)C(=O)N[C@H](CC(C)C)C(=O)N2CCC[C@@H]2C(=O)O[C@@H]1C	0.49
CC(=O)N1CCC[C@H]1C(=O)N(C)[C@@H](CC(C)C)C(=O)N[C@@H]1C(=O)N(C)[C@@H](CC(C)C)C(=O)N[C@@H](CC(C)C)C(=O)N[C@@H](CC(C)C)C(=O)N(C)[C@@H](C)C(=O)N[C@H](CC(C)C)C(=O)N2CCC[C@@H]2C(=O)O[C@@H]1C	0.43
CC(=O)N1CCC[C@H]1C(=O)N[C@@H]1C(=O)N[C@H](CC(C)C)C(=O)N[C@@H](CC(C)C)C(=O)N[C@@H](CC(C)C)C(=O)N[C@@H](CC(C)C)C(=O)N[C@H](C)C(=O)N[C@@H](CC(C)C)C(=O)N2CCC[C@@H]2C(=O)O[C@@H]1C	0.27
CC(=O)N1CCC[C@H]1C(=O)N(C)[C@@H](CC(C)C)C(=O)N[C@@H]1C(=O)N[C@H](CC(C)C)C(=O)N[C@H](CC(C)C)C(=O)N[C@@H](CC(C)C)C(=O)N[C@@H](C)C(=O)N[C@@H](CC(C)C)C(=O)N2CCC[C@H]2C(=O)O[C@@H]1C	0.14
CC(=O)N1CCC[C@@H]1C(=O)N(C)[C@H](CC(C)C)C(=O)N[C@@H]1C(=O)N(C)[C@H](CC(C)C)C(=O)N[C@H](CC(C)C)C(=O)N(C)[C@@H](CC(C)C)C(=O)N(C)[C@H](C)C(=O)N[C@H](CC(C)C)C(=O)N2CCC[C@@H]2C(=O)O[C@@H]1C	3
CC(=O)N1CCC[C@@H]1C(=O)N(C)[C@@H](CC(C)C)C(=O)N[C@@H]1C(=O)N(C)[C@H](CC(C)C)C(=O)N(C)[C@@H](CC(C)C)C(=O)N(C)[C@H](CC(C)C)C(=O)N[C@@H](C)C(=O)N[C@@H](CC(C)C)C(=O)N2CCC[C@@H]2C(=O)O[C@@H]1C	7.2
CC(=O)N1CCC[C@@H]1C(=O)N(C)[C@@H](CC(C)C)C(=O)N[C@@H]1C(=O)N[C@H](CC(C)C)C(=O)N[C@H](CC(C)C)C(=O)N(C)[C@H](CC(C)C)C(=O)N[C@H](C)C(=O)N[C@H](CC(C)C)C(=O)N2CCC[C@H]2C(=O)O[C@@H]1C	1.7
CC(=O)N1CCC[C@@H]1C(=O)N(C)[C@@H](CC(C)C)C(=O)N[C@@H]1C(=O)N[C@H](CC(C)C)C(=O)N[C@H](CC(C)C)C(=O)N[C@H](CC(C)C)C(=O)N(C)[C@H](C)C(=O)N[C@H](CC(C)C)C(=O)N2CCC[C@H]2C(=O)O[C@@H]1C	0.1
CC(=O)N1CCC[C@@H]1C(=O)N(C)[C@H](CC(C)C)C(=O)N[C@@H]1C(=O)N[C@@H](CC(C)C)C(=O)N[C@@H](CC(C)C)C(=O)N(C)[C@H](CC(C)C)C(=O)N(C)[C@H](C)C(=O)N[C@H](CC(C)C)C(=O)N2CCC[C@H]2C(=O)O[C@@H]1C	0.33

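Conditions beyond the assay type are not listed; see the original paper. The list need not hold all peptides of the study. Peptides that the database sets to -10, its floor, are left out.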